Test results taken from paper PMC4089508 (Bioorganic & medicinal chemistry, 2014).

Tested on: colchicine site on tubulin
Conditions: 5 μM compound

COc1ccc(/C=C\c2cc(OC)c(OC)c(OC)c2)cc1O [CA-4, combretastatin A-4]
Inhibition of colchicine binding % inhibition: 99 ± 0.2%
